By UniProt entry, the sequences of proteins in these tests, tags left out.
Protein disulfide-isomerase A6 (Homo sapiens), Q15084, UniProt Q15084, whole entry, looked up: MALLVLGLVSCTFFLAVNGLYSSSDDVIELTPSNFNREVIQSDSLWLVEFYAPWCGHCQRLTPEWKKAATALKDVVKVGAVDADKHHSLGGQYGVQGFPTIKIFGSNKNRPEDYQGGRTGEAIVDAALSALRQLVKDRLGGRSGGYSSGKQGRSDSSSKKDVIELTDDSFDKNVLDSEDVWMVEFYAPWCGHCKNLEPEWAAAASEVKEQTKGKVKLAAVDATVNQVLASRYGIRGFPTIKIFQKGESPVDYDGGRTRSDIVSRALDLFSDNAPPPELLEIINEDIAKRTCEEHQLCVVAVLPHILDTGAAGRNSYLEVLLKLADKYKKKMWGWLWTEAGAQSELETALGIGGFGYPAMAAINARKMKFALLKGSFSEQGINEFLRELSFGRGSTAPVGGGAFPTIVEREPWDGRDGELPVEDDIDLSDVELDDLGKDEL

# Most compounds without a hit are left out; they make up all but 2.2% or so of the library.
# PDI inh: inhibitors of human PDI, primary screen, biochemical, turbidity, single point, plate reader. PDI insulin aggregation turbidity, A650, 90 min. inhibition, % at 10 µM. 350,000 compounds, 0.052% hits. AID 588391, 2011;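 active means mean inhibition across replicates of 30% or more, whatever share of single replicates reach that level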
# SIRT5 inh: SIRT5 desuccinylase inhibitors, primary screen, biochemical, fluorescence imaging, single point, set 5. Purified SirT5, succinyl-peptide AMC, trypsin-coupled fluorescence. AID 652115, 2013. 330,000 compounds, 1.1% hits. NAD-dependent protein deacylase sirtuin-5, mitochondrial (Homo sapiens), Q9NXA8. inhibition, % at 15 µM; in the data active means inhibition above about 15%
# FGF22 binding: binders of human FGF22 protein, primary screen, FGF22 synaptogenesis inhibitor project, biophysical, thermal shift, single point; recombinant FGF22 thermal shift, SYPRO orange fluorescence; percent of sucrose octasulfate shift, DMSO zero; AID 651658, 2012; activity (Tm shift, normalised), % at 9.99 µM; Fibroblast growth factor 22 (Homo sapiens), Q9HCT0; 340,000 compounds, 1.5% hits;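 active means mean Tm shift, scaled 0 neutral to 100 positive control, at about 1.3% or above, every replicate too, limit read from the data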
# UUG fidelity: modulators of yeast start codon fidelity, primary screen, whole organism, S. cerevisiae, single point, plate reader | AID 602363, 2012 | S. cerevisiae UUG-firefly luciferase reporter, luminescence/redox ratio | activity score, % at 18.7 µM | hit rate 0.13% among 350,000;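 active = replicate mean at a twofold rise or more, about +100% in these data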;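 also: firefly luciferase made from a UUG start codon reports start codon fidelity; reporter light over untreated wells divided by growth signal over untreated wells; some hits fall short of that in this replicate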
# S100A4 MyoIIA: inhibitors of S100A4-myosin IIA peptide binding, primary screen, biochemical, fluorescence polarization, TAMRA-MyoIIA peptide. 360,000 compounds, 0.14% hits. inhibition, % at 10.7 µM;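 active means mean inhibition of at least 70% across replicates, with every replicate also reaching that level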
#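 Test system: S100A4 monomer protein. Medium: HEPES buffer with Ca2+, pH 7.2. Reagent: fluorescent myosin IIA peptide, 5 nM. Compound dosing: single-point compound testing. Timing: 5 min between mix addition and reading. Benchmarks: DMSO neutral and TFP positive wells.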
# ERp5 inh: inhibitors of ERp5-driven insulin aggregation, primary screen, biochemical, turbidity, absorbance 650 nm, single point; Protein disulfide-isomerase A6 (Homo sapiens), Q15084; 90 min; inhibition, % at 9.99 µM; 350,000 compounds, 0.05% hits; AID 651711, 2012;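 active means mean replicate inhibition above about 25%, with every replicate also reaching it, limit read from the data, passing the limit was not always enough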
# Active calls of the source: *; . = no result.
# Below each SMILES – SIRT5 inh | PDI inh | FGF22 binding | ERp5 inh | UUG fidelity | S100A4 MyoIIA
O=C(Nc1cccc(F)c1)N1CCCCN2[C@H](CO)[C@@H](c3ccc(-c4ccccc4F)cc3)[C@H]2C1
  1 | . | 0 | 0 | 4 | -1
CC(C)OC(=O)CSc1nc(Cc2cccs2)nc2ccccc12
  0 | -6 | 44* | -6 | . | -2
COC(=O)CSc1nc(C(C)C)nc2ccccc12
  . | -1 | . | . | -8 | .
Cc1nc2ncccn2c1-c1csc(Nc2ccc(O)cc2)n1
  0 | 53* | 42 | -6 | . | -1
CNC[C@@H]1Oc2ncc(C#CC3(O)CCCC3)cc2C(=O)N([C@@H](C)CO)C[C@@H]1C
  -3 | . | 0 | -2 | 19 | 1
COc1cc(/C=C2\SC(=O)N(CC(=O)Nc3ccc(C)cc3)C2=O)cc(Cl)c1OCC(=O)O
  3 | -1 | . | 5 | -16 | -3
Cc1ccc(NC(=O)CN2C(=O)S/C(=C/c3ccc(O)c([N+](=O)[O-])c3)C2=O)cc1C
  -3 | 1 | 0 | 17 | . | -1
Cc1ccc(NC(=O)CN2C(=O)S/C(=C/c3ccc(-c4cccc(C(=O)O)c4)o3)C2=O)cc1
  -1 | -3 | 43* | 8 | . | 0
Cc1ccc(NC(=O)CN2C(=O)S/C(=C\c3ccc(OCC(=O)O)c(Br)c3)C2=O)cc1
  17* | -4 | 0 | 5 | -5 | -8
Cc1cccc(NC(=O)CN2C(=O)S/C(=C\c3ccc(O)c([N+](=O)[O-])c3)C2=O)c1
  1 | -1 | 44* | 0 | . | -15
C[C@H]1CCCCO[C@H](CN(C)S(=O)(=O)c2ccc(F)cc2)[C@@H](C)CN([C@@H](C)CO)C(=O)c2cc(NS(=O)(=O)c3ccc(Cl)cc3)ccc2O1
  12 | . | . | -2 | 0 | -13
Cc1nn(Cc2ccc(F)cc2)c2sc(C(=O)Nc3nccs3)cc12
  -3 | -1 | 44* | 1 | . | -4
CC(C)N(C(=O)[C@H]1C[C@H](CC(=O)NCc2ccco2)C(=O)N2CCc3c([nH]c4cc(CCC(=O)N(C)C)ccc34)[C@]12C)C(C)C
  30* | -8 | 0 | 1 | 10 | 1
CCN(CC)C(=O)[C@H]1CC(CC(=O)NCCc2ccccn2)C(=O)N2CCc3c([nH]c4ccccc34)[C@]12C (stereo partly specified)
  . | -2 | 43* | -5 | -2 | -3
CN(C)C(=O)CCc1ccc2c3c([nH]c2c1)[C@]1(C)[C@@H](C(=O)N2CCOCC2)C[C@H](CC(=O)NCc2ccco2)C(=O)N1CC3
  -8 | 1 | 0 | 3 | -1 | -4
CCN(CC)C(=O)[C@H]1C[C@H](CC(=O)NC(C)(C)C)C(=O)N2CCc3c([nH]c4cc(CCC(=O)N(C)C)ccc34)[C@]12C
  31* | 1 | 0 | 5 | 6 | -2
COCCNC(=O)C[C@H]1C=C[C@H](NC(=O)NC2CCCC2)[C@H](CO)O1
  4 | . | 0 | 8 | -9 | 1
CCc1ccc(-c2cc(C)no2)cc1S(=O)(=O)Nc1cc(C)ccn1
  32* | -11 | 0 | 4 | -10 | -4
O=C(C[C@H]1CC[C@@H]2[C@H](COC[C@H](O)CN2Cc2cc(F)ccc2F)O1)NCc1ccc(Cl)cc1
  -1 | . | 0 | 1 | . | 4
CCOC(=O)c1ccc(NC(=O)C2CC(=O)N=C(N)S2)cc1 (stereo unspecified)
  1 | -1 | 43* | -5 | . | 1
CC(=O)NS(=O)(=O)c1ccc(N2C(=O)c3ccccc3C2=O)cc1
  15* | -3 | 0 | 1 | . | 6
O=C(C[C@H]1C[C@H]2c3cc(NC(=O)Nc4ccc(C(F)(F)F)cc4)ccc3O[C@H]2[C@H](CO)O1)NCc1ccc(Cl)cc1
  0 | . | 0 | 2 | . | -1
C=CCn1ncc(OC)c(Cl)c1=O
  24* | -4 | 0 | -4 | . | -6
COc1cnn(-c2cccc(C)c2)c(=O)c1Cl
  -2 | 4 | 0 | 4 | -23 | -2
O=C(C[C@@H]1CC[C@@H]2[C@H](COC[C@H](O)CN2S(=O)(=O)c2ccccc2)O1)NCCN1CCCC1
  -4 | . | . | -7 | . | 48
Cc1ccc(NC(=S)NC(=O)c2cncc(Br)c2)cc1Cl
  29* | -8 | 0 | 5 | -37 | 3
O=C(NC(=S)Nc1ccc(Cl)cc1)c1cncc(Br)c1
  . | 20 | 0 | -6 | . | -2
Cc1ccc(S(=O)(=O)NNC(=O)c2c(O)c3ccccc3[nH]c2=O)cc1
  17* | 5 | 0 | -2 | -10 | -4
Nc1ccc2nc(-c3cccc(-c4nc5ccc(N)cc5[nH]4)c3)[nH]c2c1
  17* | -5 | 0 | -1 | . | -6
Nc1ccc(-c2nc3ccc(N)cc3[nH]2)cc1
  -15 | -10 | 0 | 0 | . | 6

# Overlap with the part before: four compounds; new compounds follow.
# Below each SMILES – SIRT5 inh | PDI inh | FGF22 binding | ERp5 inh | UUG fidelity | S100A4 MyoIIA
O=C(NC(=S)Nc1ccc(Cl)cc1)c1cncc(Br)c1
  . | 20 | 0 | -6 | . | -2
Cc1ccc(S(=O)(=O)NNC(=O)c2c(O)c3ccccc3[nH]c2=O)cc1
  17* | 5 | 0 | -2 | -10 | -4
Nc1ccc2nc(-c3cccc(-c4nc5ccc(N)cc5[nH]4)c3)[nH]c2c1
  17* | -5 | 0 | -1 | . | -6
Nc1ccc(-c2nc3ccc(N)cc3[nH]2)cc1
  -15 | -10 | 0 | 0 | . | 6
CCCCN1C(=O)C(=O)N(CC(=O)NC2CCCc3ccccc32)C1=O (stereo unspecified)
  -2 | 3 | 44* | 1 | . | 2
O=C(CN1C(=O)C2CCCCC2C1=O)NC1CCCc2ccccc21 (stereo unspecified)
  -5 | -1 | . | 5 | -1 | -10
CCN1[C@@H]2c3ccc(-c4ccc(F)cc4)c(=O)n3C[C@@H]2[C@@H](CO)[C@@H]1C(=O)NC1CCC1
  0 | . | . | -6 | . | -45
CO[C@@H]1CN(C)C(=O)c2ccc(NC(=O)c3ccccc3)cc2OC[C@H](C)NC[C@H]1C
  . | . | 0 | -1 | 6 | 6
Cc1c2cc(O)c(=O)cc-2oc2cc(O)c(O)cc12
  29* | -6 | 0 | -4 | -10 | 180*
COc1cc(OC)c(-c2c3cc(O)c(=O)cc-3oc3cc(O)c(O)cc23)cc1OC
  7 | 0 | 1 | 3 | . | -18
CC=Cc1ccc2n(c1=O)C[C@H]1[C@H](CO)[C@@H](C(=O)NCc3ccccc3)[C@@H]2N1CC (mixture of isomers)
  -1 | . | 1.4* | -9 | . | 4
CC=Cc1ccc2n(c1=O)C[C@@H]1[C@@H](CO)[C@H](C(=O)NCc3ccc4c(c3)OCO4)[C@H]2N1C(C)=O (mixture of isomers)
  5 | . | 0 | -2 | . | 125*
C[C@H]1CN([C@@H](C)CO)C(=O)c2cccc(NC(=O)c3ccc(-c4nccs4)cc3)c2O[C@H]1CN(C)S(=O)(=O)c1ccc(Cl)cc1
  -2 | . | 0 | -3 | -8 | -20
